{"source": "paper PMC12586598", "about": "“A novel long-acting C5a-blocking cyclic peptide prevents sepsis-induced organ dysfunction via effective blockade of the inflammatory cascade” (Signal Transduction and Targeted Therapy, 2025)", "molecules": {"B1": {"name": "eculizumab (antibody, chains of the INN, looked up)", "heavy": "QVQLVQSGAEVKKPGASVKVSCKASGYIFSNYWIQWVRQAPGQGLEWMGEILPGSGSTEYTENFKDRVTMTRDTSTSTVYMELSSLRSEDTAVYYCARYFFGSSPNWYFDVWGQGTLVTVSSASTKGPSVFPLAPCSRSTSESTAALGCLVKDYFPEPVTVSWNSGALTSGVHTFPAVLQSSGLYSLSSVVTVPSSNFGTQTYTCNVDHKPSNTKVDKTVERKCCVECPPCPAPPVAGPSVFLFPPKPKDTLMISRTPEVTCVVVDVSQEDPEVQFNWYVDGVEVHNAKTKPREEQFNSTYRVVSVLTVLHQDWLNGKEYKCKVSNKGLPSSIEKTISKAKGQPREPQVYTLPPSQEEMTKNQVSLTCLVKGFYPSDIAVEWESNGQPENNYKTTPPVLDSDGSFFLYSRLTVDKSRWQEGNVFSCSVMHEALHNHYTQKSLSLSLG", "light": "DIQMTQSPSSLSASVGDRVTITCGASENIYGALNWYQQKPGKAPKLLIYGATNLADGVPSRFSGSGSGTDFTLTISSLQPEDFATYYCQNVLNTPLTFGQGTKVEIKRTVAAPSVFIFPPSDEQLKSGTASVVCLLNNFYPREAKVQWKVDNALQSGNSQESVTEQDSKDSTYSLSSTLTLSKADYEKHKVYACEVTHQGLSSPVTKSFNRGEC", "notes": "anti-C5 antibody, positive control in the hemolytic assay"}}, "tested_on": "C5 cleavage / C5b-dependent terminal MAC formation", "experiment": "Hemolytic assay (mouse serum, hemolysin-opsonized sheep erythrocytes)", "assay_type": "biochemical", "details": "absorbance at 540 nm", "procedure": "Aliquots of mouse serum were incubated with serially diluted peptides Cp1 or Cp3 (in PBS) at 37 °C for 30 min prior to analysis. The anti-C5 antibody eculizumab (MCE, Shanghai) was selected as the positive control. Hemolysin-opsonized sheep erythrocytes (2% suspension in PBS) were added to the reaction system, followed by 0.5 h of incubation at 37 °C. Hemolytic activity was quantified by measuring the absorbance of the supernatant at 540 nm via a multimode microplate reader (BioTek Synerrgy H1, Agilent, USA)."}
{"molecule": "B1", "values": [{"measurement": "effect on hemolysis of sheep erythrocytes (in words)", "result": "almost completely inhibited hemolysis"}]}
